Tests used:
[1] = Top 3 Taxol Compounds (20uM) PC3 Vs LNCaP (x2) Vs PNT2 Cell-based assay
Procedure: Table printed on a drawing sheet, Fig. 9 (Cont.)
Title: Top 3 Taxol Compounds (20uM) PC3 Vs LNCaP (x2) Vs PNT2 Cell-based assay
Footnotes: [diagonal hatching] Tumour (51-100%) / Non-Tumour (0-15%) / [horizontal hatching] Tumour & Non-Tumour (26-50%) / [cross hatching] Tumour (0-25%) / Non-Tumour (51-100%)
First reader's note: Continuation of Fig. 9; cell shading (hatching) classifies the values by the legend, and all compounds were tested at 20uM in cell culture.

[2] = ALL Taxol Compounds (1uM) (ALL Tissue Metabolism)
Procedure: Table printed on a drawing sheet, Fig. 11
Title: ALL Taxol Compounds (1uM) (ALL Tissue Metabolism)
Footnotes: Tumour (51-100%) / Liver (0-15%) / Tumour & Liver (26-50%) / Tumour (0-25%) / Liver (51-100%)
First reader's note: Cell hatching codes the classes given in the legend; all compounds tested at 1uM in tissue homogenates.

[3] = ALL Taxol Compounds (1uM) PC3 Vs Liver Vs HT1080 Metabolism
Procedure: Table printed on a drawing sheet, Fig. 7 (Cont.)
Title: ALL Taxol Compounds (1uM) PC3 Vs Liver Vs HT1080 Metabolism
(§1) Footnotes: [diagonal hatching] Tumour (51-100%) / Liver (0-15%) / [horizontal hatching] Tumour & Liver (26-50%) / [cross hatching] Tumour (0-25%) / Liver (51-100%)
First reader's note: Continuation of Fig. 7; cell hatching classifies the values per the legend, and the title states 1uM while the head row states 1mM.

[4] = ALL Taxol Compounds (10uM) PC3 Vs Liver Vs HT1080 Metabolism
Procedure: Table printed on a drawing sheet, Fig. 8 (Cont.)
Title: ALL Taxol Compounds (10uM) PC3 Vs Liver Vs HT1080 Metabolism
as §1
First reader's note: Continuation of Fig. 8; the title prints 10uM while the head row prints 10mM, and cell hatching marks the classes given in the legend.

## FITC [ICT3201]
[1]
  Cell Culture Metabolism (20uM) | LNCaP (2) Taxol Release (% gain): 38 % gain
  Cell Culture Metabolism (20uM) | LNCaP Stability (% loss): 91 % loss
  Cell Culture Metabolism (20uM) | LNCaP Taxol Release (% gain): 31 % gain
  Cell Culture Metabolism (20uM) | PC3 Stability (% loss): 57 % loss
  Cell Culture Metabolism (20uM) | PC3 Taxol Release (% gain): 30 % gain
  Cell Culture Metabolism (20uM) | PNT2 Stability (% loss): 62 % loss
  Cell Culture Metabolism (20uM) | PNT2 Taxol Release (% gain): 8 % gain
[2]
  Tissue Homogenate Metabolism (1uM) | Kidney Stability (% loss): 45 % loss
  Tissue Homogenate Metabolism (1uM) | Kidney Taxol Release (% gain): 37 % gain
  Tissue Homogenate Metabolism (1uM) | Lung Stability (% loss): 69 % loss
  Tissue Homogenate Metabolism (1uM) | Lung Taxol Release (% gain): 50 % gain
[3]
  Tissue Homogenate Metabolism (1 µM) | HT1080 Stability (% loss): 91 % loss
  Tissue Homogenate Metabolism (1 µM) | HT1080 Taxol Release (% gain): 23 % gain
  Tissue Homogenate Metabolism (1 µM) | Liver Stability (% loss): 21 % loss
  Tissue Homogenate Metabolism (1 µM) | Liver Taxol Release (% gain): 5 % gain
  Tissue Homogenate Metabolism (1 µM) | PC3 Stability (% loss): 91 % loss
  Tissue Homogenate Metabolism (1 µM) | PC3 Taxol Release (% gain): 20 % gain
[4]
  Tissue Homogenate Metabolism (10 µM) | HT1080 Stability (% loss): 81 % loss
  Tissue Homogenate Metabolism (10 µM) | HT1080 Taxol Release (% gain): 29 % gain
  Tissue Homogenate Metabolism (10 µM) | Liver Stability (% loss): 18 % loss
  Tissue Homogenate Metabolism (10 µM) | Liver Taxol Release (% gain): 11 % gain
  Tissue Homogenate Metabolism (10 µM) | PC3 Stability (% loss): 79 % loss
  Tissue Homogenate Metabolism (10 µM) | PC3 Taxol Release (% gain): 25 % gain

— patent US20190015519A1, “MMP-SENSITIVE TAXANE PRODRUG” (Incanthera Ltd, priority 2015, published 2019)
